# In patent publication US7238213B2, “Cell-based assays employing voltage and calcium dyes” (priority 2001, dated 2007):
# Sequences of proteins named here, by UniProt entry; tags and fusion partners are left off. Residues count along the entry.
# UniProt P47871, 26-477, species assumed: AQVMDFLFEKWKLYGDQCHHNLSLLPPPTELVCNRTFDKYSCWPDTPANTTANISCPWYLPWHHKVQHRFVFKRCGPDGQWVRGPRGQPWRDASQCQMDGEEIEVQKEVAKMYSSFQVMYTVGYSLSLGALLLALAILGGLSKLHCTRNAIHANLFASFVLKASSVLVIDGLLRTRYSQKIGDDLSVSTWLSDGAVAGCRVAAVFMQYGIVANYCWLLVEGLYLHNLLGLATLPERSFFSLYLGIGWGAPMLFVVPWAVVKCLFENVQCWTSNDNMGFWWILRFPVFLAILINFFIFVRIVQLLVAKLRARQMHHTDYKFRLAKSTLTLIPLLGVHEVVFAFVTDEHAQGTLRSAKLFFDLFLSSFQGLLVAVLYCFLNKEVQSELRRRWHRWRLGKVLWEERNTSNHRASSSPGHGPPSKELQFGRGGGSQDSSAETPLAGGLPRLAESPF
# Target: T1, GCGR (Homo sapiens, UniProt P47871)
# T1 construct: expressed in transfected cells
# Assay: CNG channel voltage dye assay with quencher dyes, cell line ASC0089 (GCGR)
# Assay type: cell-based
substance,measurement,value
glucagon,maximal response Fmax/Fb,4.6 and 4.2 and 4.9 and 4

# Where “and” joins values, the source holds several entries; their conditions need not be identical. Equal values may be shown once.
